Sequences of proteins named here, by UniProt entry; tags and fusion partners are left off.
UniProt P11802, whole entry, species assumed: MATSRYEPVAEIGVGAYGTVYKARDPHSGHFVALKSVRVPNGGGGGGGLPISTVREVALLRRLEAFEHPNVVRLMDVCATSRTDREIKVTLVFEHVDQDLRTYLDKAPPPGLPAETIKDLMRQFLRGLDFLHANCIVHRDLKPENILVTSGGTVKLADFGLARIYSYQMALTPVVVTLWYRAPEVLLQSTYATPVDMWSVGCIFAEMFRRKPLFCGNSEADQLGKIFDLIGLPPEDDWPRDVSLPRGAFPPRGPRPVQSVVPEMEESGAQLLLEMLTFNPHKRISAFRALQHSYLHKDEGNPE

According to patent publication EP1079826B1, “USE OF INDIGOID BISINDOLE DERIVATIVES FOR THE MANUFACTURE OF A MEDICAMENT TO INHIBIT CYCLIN DEPENDENT KINASES” (CNRS, Centre National de la Recherche Scientifique, priority 1998, dated 1999):

Molecular target: CDK4/ cyclin D1 (Homo sapiens, UniProt P11802)
Test: kinase inhibition selectivity, CDK4/cyclin D1
Type: biochemical
Details: calculated from dose response curves, Table 4

## O=C1Nc2ccc(S(=O)(=O)O)cc2C1=C1Nc2ccccc2C1=O [Example 11, Indirubine-5-sulfonic acid]
  IC50: 300 nM
